Experimental data reported in publication PMC3828267 (PLoS ONE, 2013).

By UniProt entry, the sequences of proteins in these tests, tags left out. Residues count along the entry.
UniProt P36544, 23-502: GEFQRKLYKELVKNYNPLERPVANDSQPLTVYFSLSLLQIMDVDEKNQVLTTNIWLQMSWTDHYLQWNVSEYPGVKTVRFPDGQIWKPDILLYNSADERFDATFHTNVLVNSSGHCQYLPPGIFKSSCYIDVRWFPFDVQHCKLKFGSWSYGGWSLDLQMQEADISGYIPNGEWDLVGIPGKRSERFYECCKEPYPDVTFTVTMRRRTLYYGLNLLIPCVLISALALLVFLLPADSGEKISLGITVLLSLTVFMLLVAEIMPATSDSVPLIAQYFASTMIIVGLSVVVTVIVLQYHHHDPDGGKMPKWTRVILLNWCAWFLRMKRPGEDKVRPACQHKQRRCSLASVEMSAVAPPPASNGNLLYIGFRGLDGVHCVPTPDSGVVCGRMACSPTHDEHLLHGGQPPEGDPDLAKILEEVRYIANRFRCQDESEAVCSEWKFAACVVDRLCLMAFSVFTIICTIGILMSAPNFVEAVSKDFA

Key:
α7 AChRs [1] = target: T1, α7 AChRs (Homo sapiens, UniProt P36544); assay: Acute activation, FLEXStation membrane potential dye, α7/RIC-3 cell line; type: cell-based; parameters: expressed in transfected cells; grown in VPA and PBA
Procedure: The parental cell line used for transfections was tsA201, derived from the human embryonic kidney cell line (HEK) 293 [33]. […] The cell line permanently expressing α3β4 AChRs has been described, [34]. A stable cell line expressing functional α7 AChRs was prepared by initially transfecting the tsA201 cell line with cDNA for α7 and subsequently transfecting with cDNA for the AChR-selective chaperone, human RIC-3.
Responses to nicotinic agonists were determined using a FLEXStation microplate fluorometer (Molecular Devices, Sunnyvale, CA) as described. For cell lines expressing α4β2 and α3β4 AChRs, the cells were plated at 10^5 cells/ml (100 µl/well) in black-walled clear-bottom 96 well plates (Costar, Fisher Scientific, Pittsbugh, PA), and incubated for 48 hours prior to assaying responses to various nicotinic agonists. […]
To measure responses to various nicotinic agonists, 100 µl of a fluorescent dye which is sensitive to changes in membrane potential (Molecular Devices) was added to the wells. […] Fluorescent responses were measured in the FLEX Station at 25°C, with an excitation wavelength of 530 nm and an emission wavelength of 565 nm. […]
Data were graphed using GraphPad Prism software. […] The EC50 and IC50 were calculated from the curves. […]

α7 AChRs [2] = target: T1, α7 AChRs; assay: Chronic desensitization (16 h agonist, then ACh response) and calculated smoldering activation, α7 cell line; type: cell-based; parameters: expressed in transfected cells; grown in VPA and PBA
Procedure: To measure desensitization, plates were prepared as for agonist assays. Sixteen hours prior to the assay, serial dilutions of agonists, prepared in regular growth medium, were added to the plates. One hour before the assay, the membrane potential-sensitive fluorescent dye with 0.5 µM atropine was added to the wells. […] Each data point represents the average of peak values for individual dose response curves from 4–8 wells.
Data were graphed using GraphPad Prism software. Non-linear models (sigmoidal dose-response with variable slope or two site competition) were used to fit the concentration response curves. The EC50 and IC50 were calculated from the curves. Kaleidagraph software was used to determine Hill slopes and standard errors of the EC50 and IC50.
Responses for the three different AChRs are shown in Figures 3, 4, 5, 6, along with the dose response curves for activation (the same as shown in Figure 2). The range of concentrations at which both sustained activation and desensitization can occur (“smoldering activation”) was calculated by multiplying the acute response to agonists at each concentration by the fractional response remaining after desensitization.

- EC50 (α7 AChRs [1]): 400 ± 20 nM
Compound: c1cnc2cc3c(cc2n1)[C@@H]1CNC[C@H]3C1 [Varenicline, varenicline]
- IC50 (α7 AChRs [2]): 400 ± 50 nM
